Read-outs that look alike come from different tables or passages of the source.
Columns and labels:
[1] = Relaxivity of the compound in water; type: physicochemical; conditions: deionized water
Experimental: Test example 1: Relaxivity of the compound in water
Niumag (Suzhou) Nuclear Magnetic Resonance Contrast Agent Relaxivity Analyser with a 0.5 T magnetic field
Bruker Small Animal Magnetic Resonance Imaging System (BioSpec 70/20 USR) with a 7 T magnetic field
1 mL of the test sample was placed in a 1.5 mL EP (eppendorf) tube, and the longitudinal relaxation time T1 and transverse relaxation time T2 under different magnetic field conditions were measured separately using the Niumag (Suzhou) Nuclear Magnetic Resonance Contrast Agent Relaxivity Analyser with a 0.5 T magnetic field. The test sample was loaded into a 0.2 mL sample tube until full, and the longitudinal relaxation time T1 and transverse relaxation time T2 under different magnetic field conditions were measured separately using the Bruker Small Animal Magnetic Resonance Imaging System (BioSpec 70/20 USR) with a 7 T magnetic field.
(§1) Based on the relaxation times T1 and T2 of samples at different concentrations, the relaxivities r1 and r2 were calculated respectively. The relaxivity was calculated according to the following equation: r = (1)/(ΔT)/C, [formula] r: relaxivity; T: relaxation time (s); C: contrast agent concentration (mM).

[2] = Metal transfer stability test in the presence of zinc ions; type: physicochemical; conditions: equal volumes 2.5 mM contrast agent and 2.5 mM ZnCl2, phosphate buffer, 37°C, 0.5 T
Experimental: Test example 4: Metal transfer stability test of compounds in the presence of zinc ions • 1 . Experimental protocol • 2. […] Experiment instruments: VTMR20-010V-I Nuclear Magnetic Resonance Cross-Linking Density Imaging Analyser • 4. Experimental method
A 2.5 mM solution of contrast agent solutions and a 2.5 mM solution of zinc chloride were respectively prepared in phosphate buffer (0.026 mol/L KH2PO4 and 0.041 mol/L Na2HPO4). An equal volume of a 2.5 mM ZnCl2 solution was added to the a 2.5 mM gadolinium contrast agent solution, and the mixture was mixed by shaking. This moment of complete mixing was designated as time zero (t = 0). Immediately thereafter, a 0.5 mL aliquot was withdrawn and subjected to measurement of the longitudinal relaxation time, T1(0), at 37°C and a magnetic field strength of 0.5 T. The mixed solution was then incubated at 37°C. 0.5 mL of the solution was taken at time points of 5 min, 180 min, 1440 min and 5760 min, respectively, to determine T1(t) at different time points. The ratio of the relaxivity at different time points to the initial relaxivity at time 0, namely R1(t)/R1(0), was calculated.

canine plasma proteins = conditions: dog, 1000 µM
Experimental: After the preparation of plasma samples, 0.5 mL of plasma samples were transferred into ultracentrifugation tubes, with 3 replicates per concentration. After incubation in a CO2 incubator at 37°C for 0.5 h, the samples were subjected to ultracentrifugation at 627,000 g for 3 hours at 37°C. After centrifugation, 100 µL of samples were taken from the central layer of the ultracentrifugation tubes and mixed with 100 µL of blank plasma. The samples were stored at -70°C for subsequent determination.
The plasma protein binding rates of analytes at different concentration levels were calculated using the following formulas: [formula] Binding rate% = 100%−Free rate%. [formula]

[3] = Relaxivity of compounds in human plasma; type: physicochemical; conditions: human plasma containing sodium heparin, 0.5 T
Experimental: as §1

[4] = hydrochloric acid pH 1.2, 37°C, 8 × 10^-6 M, 0 h
[5] = hydrochloric acid, 96 h, 8 µM, pH 1.2
[6] = hydrochloric acid, 168 h, 8 µM, pH 1.2

| Substance | Relaxivity r1 ([1]; 0.5 T) [mM⁻¹ s⁻¹] | Relaxivity r1 ([1]; 7 T) [mM⁻¹ s⁻¹] | Gd^3+ Dissociation rate (%) [4] | Gd^3+ Dissociation rate (%) (hydrochloric acid, 24 h, 8 µM, pH 1.2) | Gd^3+ Dissociation rate (%) (hydrochloric acid, 48 h, 8 µM, pH 1.2) | Gd^3+ Dissociation rate (%) [5] [%] | Gd^3+ Dissociation rate (%) [6] [%] | R1(t)/R1(0) ([2]; 0 min) | R1(t)/R1(0) ([2]; 5 min) | R1(t)/R1(0) ([2]; 180 min) | R1(t)/R1(0) ([2]; 1440 min) | R1(t)/R1(0) ([2]; 5760 min) | Gd^3+ Dissociation rate (%) (hydrochloric acid pH 1.2, 37°C, 8 × 10^-6 M, 24 h) | Gd^3+ Dissociation rate (%) (hydrochloric acid pH 1.2, 37°C, 8 × 10^-6 M, 48 h) | Average% (binding rate) (canine plasma proteins) [%] | Relaxivity r1 [3] [mM⁻¹ s⁻¹] |
| --- | --- | --- | --- | --- | --- | --- | --- | --- | --- | --- | --- | --- | --- | --- | --- | --- |
| 2,2',2'-(1^3-methoxy-3,6,9-triaza-1(2,6)-pyridine cyclodecane-3,6,9-triyl)tris(5-((2,3-dihydroxypropyl)amino)-5-oxopentanedioic acid)gadolinium (III) complex [Compound 5] | 9.3 | 5.2 | BLQ | 24.1 | 28.7 | 32.3 | 42.1 | – | – | – | – | – | – | – | – | – |
| 2,2',2'-(1^4-methoxy-3,6,9-triaza-1(2,6)-pyridine cyclodecane-3,6,9-triyl)tris(5-((2,3-dihydroxypropyl)amino)-5-oxopentanedioic acid)gadolinium (III) complex [Compound 4] | 15.5 | 10.7 | BLQ | – | – | 0.59 | 23.9 | 1 | 0.77 | 0.91 | 0.89 | 1.05 | BLQ | BLQ | 19.6 | 16.0 |

Reference: EP4772508A1, “MACROCYCLIC COMPOUND AND USE THEREOF” (Jiangsu Hengrui Pharmaceuticals Co., Ltd., priority 2023, dated 2025)
